# Source: PubChem BioAssay AID2380 (Sanford-Burnham Center for Chemical Genomics, 2010)
# The entries are a selection whose mix differs from that of the whole data set. Some of these compounds have results that are not shown, active ones among them. The source made the active and inactive calls.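 Rule for the calls: active = compounds whose signal lies at least 3.5 SD above the mean of all wells on their plate; inactive = the rest.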
# Experiment: inducers of MIN6 beta-cell proliferation, primary screen, ATP luminescence, uHTS (AID 2380);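 note: 0% = DMSO-treated cells in low-serum medium and 100% = 10% serum control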
# Details: MIN6 cells proliferation, ATPlite luminescence, 48 h; at 10 µM; stronger effect = higher value; 100% = growth in 10% serum; cells starved in 0.2% serum
row,Structure (SMILES),proliferation
1,Cc1ccccc1C(=O)NCC1(N2CCCCC2)CCCCC1,inactive: -0.35%
2,CN(C)c1ccc(C(=O)NCC2(N(C)C)CCCCC2)cc1,inactive: -4.91%
3,CN(C)C1CCCC1OC(=O)C(O)(c1ccccc1)c1ccccc1 (centres undefined),inactive: 0.18%
4,CCN1CCCC(OC(=O)C2(O)c3ccccc3C=Cc3ccccc32)C1 (centres undefined),inactive: 0%
5,Cc1cc(C(=O)NCC2(N3CCCCC3)CCCCC2)ccc1[N+](=O)[O-],inactive: 0%
6,O=C(NCC1(N2CCCCC2)CCCCC1)c1cccc(Br)c1,inactive: -0.64%
7,COc1ccc(C(=O)NCC2(N(C)C)CCCCC2)cc1,inactive: -2.58%
8,C=CCN1CCN(CCOC(=O)C(O)(c2ccccc2)c2ccccc2)CC1,inactive: 0.92%
9,O=C(NCC1(N2CCCCC2)CCCCC1)c1cc(F)c(F)cc1Cl,inactive: -1.92%
10,CN1[C@@H]2CC[C@H]1CC(OC(=O)C(O)(c1ccccc1)c1ccccc1)C2 (some centres undefined),inactive: -3.4%
11,O=C(NCC1(N2CCCCC2)CCCCC1)c1cc([N+](=O)[O-])ccc1Cl,inactive: -2.81%
12,Cc1ccc(C(=O)NCC2(N3CCCCC3)CCCCC2)cc1,inactive: 6.55%
13,CC(C)N1C(=O)CC2(CCN(CCOC(=O)C(O)(c3ccccc3)c3ccccc3)CC2)C1=O,inactive: -2.07%
14,CCN(CC)CC(C)C(C)OC(=O)C(O)(c1ccccc1)c1ccccc1 (centres undefined),inactive: -1.5%
15,COc1cc(SC)ccc1C(=O)NCC1(N(C)C)CCCCC1,inactive: 0.35%
16,O=C(OC1CN2CCC1CC2)C(CO)(c1ccccc1)c1ccccc1 (centres undefined),inactive: -5.31%
17,CN(C)c1cccc(C(=O)NCC2(N(C)C)CCCCC2)c1,inactive: -1.68%
18,CC(C)Oc1ccc(C(=O)NCC2(N(C)C)CCCCC2)cc1,inactive: -3.19%
19,COc1ccc(Br)c(C(=O)NCC2(N3CCCCC3)CCCCC2)c1,inactive: -3.08%
20,COc1cc(C(=O)NCC2(N(C)C)CCCCC2)c([N+](=O)[O-])cc1OC,inactive: -2.29%
21,CN(C)C1(CNC(=O)c2ccc(Br)cc2)CCCCC1,inactive: -3.41%
22,O=C(NCC1(N2CCCCC2)CCCCC1)c1cccc(Cl)c1,inactive: -4.2%
23,COc1cccc(C(=O)NCC2(N3CCCCC3)CCCCC2)c1,inactive: -2.17%
24,COc1ccc(Cl)cc1C(=O)NCC1(N(C)C)CCCCC1,inactive: 4.33%
